Data taken from patent US12427149B2, “Methods and compositions for the prevention and treatment of hearing loss” (Ting Therapeutics, Inc., priority 2019, dated 2025).

What was measured:
[1] = Cisplatin-induced hearing loss in adult mice, oral delivery, ABR threshold shifts; assay type: in vivo, FVB mice; settings: day 21; cisplatin 30 mg/kg and dabrafenib 100 mg/kg co-treatment; vs cisplatin alone
[2] = Noise-induced hearing loss in adult mice, oral delivery, ABR threshold shifts; assay type: in vivo, FVB mice; settings: day 14
Experimental: Now referring to FIGS. 8A and 8B, Dabrafenib is protective against noise-induced hearing loss in adult mice when delivered orally forty-five minutes before the noise exposure. (A) Schedule of administration of dabrafenib and noise exposure to FVB mice (males and females). (B) Reduced ABR threshold shifts of 18.1-21.9 dB in average were recorded on day 14 after first day of dabrafenib and noise exposure, mean±SEM, **, P<0.01, ***, P<0.001, compared to carrier by two-way ANOVA followed by a Bonferroni comparison.
In this example, compounds for oral delivery were dissolved in the carrier 10% DMSO, 40% PF5300, 5% Tween-80 and 45% saline (0.9% NaCl) and were given in a volume of 10 ml/kg. In FIG. 13B Dabrafenib (2×60 mg/kg/day) is given by oral delivery continuously for 3 days post-noise. In FIG. 13C AZD5438 (2×35 mg/kg/day) is given by oral delivery continuously for 3 days post-noise. In FIG. 13D complete protection against noise is achieved with combination of the two drugs for 3 days post-noise (dabrafenib (2×60 mg/kg/day) and AZD5438 (2×35 mg/kg/day), mean±SEM, *, P<0.05, **, P<0.01, compared to carrier alone by unpaired two-tailed Student's t-test

SMILES: CC(C)(C)c1nc(-c2cccc(NS(=O)(=O)c3c(F)cccc3F)c2F)c(-c2ccnc(N)n2)s1 [Dabrafenib]
- reduced ABR threshold shifts (average) [1]: 11.8-15.0 dB
- reduced ABR threshold shifts (average) ([2]; dabrafenib 60 mg/kg x2 daily and noise exposure, vs carrier (FIG. 8B)): 18.1-21.9 dB
- reduced ABR threshold shifts (average) ([2]; dabrafenib 60 mg/kg x2 daily and noise exposure, vs carrier (FIG. 8B), listed as dabrafenib): 13.5-21.2 dB
- reduced ABR threshold shifts (average) ([2]; dabrafenib 100 mg/kg and noise exposure, vs carrier (FIG. 7B)): 18.1-21.9 dB
